# ChEMBL document CHEMBL3997828, “Investigation of orexin-2 selective receptor antagonists: Structural modifications resulting in dual orexin receptor antagonists” (Bioorg Med Chem Lett, 2017)
# Sequences of proteins named here, by UniProt entry; tags and fusion partners are left off.
# UniProt O43613, whole entry: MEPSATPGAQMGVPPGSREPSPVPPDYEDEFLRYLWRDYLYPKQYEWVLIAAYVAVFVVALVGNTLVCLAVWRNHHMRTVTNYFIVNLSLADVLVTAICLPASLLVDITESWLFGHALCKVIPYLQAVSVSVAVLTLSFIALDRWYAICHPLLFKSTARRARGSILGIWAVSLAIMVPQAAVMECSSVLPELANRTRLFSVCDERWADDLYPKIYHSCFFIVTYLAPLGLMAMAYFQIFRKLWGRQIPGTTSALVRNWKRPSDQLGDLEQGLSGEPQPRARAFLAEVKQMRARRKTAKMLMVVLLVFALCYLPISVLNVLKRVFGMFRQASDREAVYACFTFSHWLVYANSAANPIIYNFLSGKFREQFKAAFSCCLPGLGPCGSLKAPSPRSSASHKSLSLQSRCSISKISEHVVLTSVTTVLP
# Target: Orexin/Hypocretin receptor type 1 (Homo sapiens, UniProt O43613)
# Test: Antagonist activity at human OX1R expressed in CHOK1 cells assessed as reduction in orexin A-induced calcium flux preincubated followed by orexin A addition by FLIPR assays
# Assay type: functional, cell-based
row,SMILES,IC50
1,COc1ccc(C(=O)N2C[C@H](Oc3nccc(C#N)c3C)CC[C@H]2C)c(C2CC2)n1,> 10 µM
2,COc1ccc(C(=O)N2C[C@H](Oc3nccc(C#N)c3C)CC[C@H]2C)c(-c2ccncc2)n1,> 10 µM
3,COc1ccc(C(=O)N2C[C@H](Oc3nccc(C#N)c3C)CC[C@H]2C)c(-n2nccn2)c1,6.12 µM
4,Cc1c(C#N)ccnc1O[C@@H]1CC[C@@H](C)N(C(=O)c2ccccc2OC(F)(F)F)C1,1.97 µM
5,Cc1c(C#N)ccnc1O[C@@H]1CC[C@@H](C)N(C(=O)c2ccncc2-c2ccccc2)C1,4.45 µM
